Literature values, collected in patent US20260256742A1, “ANDROGEN RECEPTOR ANTAGONISTS FOR THE TREATMENT OF PATIENTS WITH BIOCHEMICAL RECURRENCE OF HORMONE SENSITIVE PROSTATE CANCER” (BAYER CONSUMER CARE AG, priority 2023, published 2026).

System: AR mutants
Conditions: cited from earlier work

**Q.** With CC(O)c1cc(C(=O)N[C@@H](C)Cn2ccc(-c3ccc(C#N)c(Cl)c3)n2)[nH]n1 (stereo partly shown) [Darolutamide] as the molecule, how does the “activity against known AR mutants that confer resistance to other second-generation antiandrogens” value read?
**A.** activity against known AR mutants
